# Data published in PubChem BioAssay AID651550 (National Center for Advancing Translational Sciences (NCATS), 2012).
# Only a part is listed here, and it is no random draw. The source made the active and inactive calls. No stated cut-off is given here; in the data, active means activity change below about -80%; inconclusive means mostly about -51% to -80%; inactive means weaker than that.
# Molecular target: RAC-alpha serine/threonine-protein kinase (Homo sapiens) (UniProt P31749)
# Assay: HTS Assay for Inhibitors of Akt Phophorylation: Primary Screen
# Conditions: Neuro2A IGF-stimulated pAkt S473 HTRF, 20 min; at 50 µM; stronger effect = lower value
# Excerpt: The serine/threonine protein kinase Akt (protein kinase B) regulates various cellular processes, including cell survival, growth, proliferation, migration and differentiation. It has been well established that Akt is activated through two essential steps involving membrane translocation and phosphorylation. Cytosolic Akt is recruited to the plasma membrane via the interaction between the PH domain and membrane PIP3 produced by phosphoinositide-3 kinase (PI3K) upon growth factor receptor stimulation. The membrane-Akt interaction results in conformational changes of Akt, enabling its activation through phosphorylation at T308 in the kinase domain and at S473 in the C-terminal hydrophobic motif by PDK1 and mTOR-rictor complex (mTORC2), respectively. […] These findings indicate that S473 phosphorylation, as an important modulator of Akt activation, may be a valuable drug target for cell growth, survival, proliferation and differentiation. These inhibitors also may have significant therapeutic potential with fewer side effects, especially for the conditions involving hyperactive Akt signaling, such as cancer and Alzheimer's disease.
# To this end, a miniaturized assay was developed to be screened against the Molecular Libraries Small Molecule Repository (MLSMR).
# NIH Chemical Genomics Center [NCGC]
# NIH Molecular Libraries Probe Centers Network [MLPCN]
# Assay Submitter (PI): Hee-Yong Kim, National Institute on Alcohol Abuse and Alcoholism
# 3 uL of Neuro2A cell suspension in DMEM containing 0.5% FBS and […] antibiotics mix was plated in a white solid bottom tissue culture-treated 1536-well plate (Greiner Bio-One, Monroe, NC) at 4,500 cells per well and incubated overnight at 37 deg C. 23 nL/well of compound solutions in DMSO was added with Pintool transfer (Kalypsis, San Diego, CA) at single […] final concentration. Then, the cells were stimulated with 1.5 uL of IGF (6 nM final concentration) and incubated at 37 deg C for 20 min. The reaction was terminated by the addition of 1.5 uL blocking reagent mixed with lysis buffer (1:25 correspondingly) provided with HTRF(R) Phospho Akt (Ser473) kit (Cisbio US, Bedford, MA), with following incubation for 50 min at ambient temperature. The detection HTRF conjugates from the kit were prepared according to the protocol, pre-mixed 1:1 prior to dispensing, and 2 uL/well was added with BioRAPTR FRD dispenser (Beckman Coulter). The assay plates were incubated for 24 hours at ambient temperature, and the HTRF fluorescence was measured using Envision plate reader (PerkinElmer) with excitation at 330nm, emission at 615nm (Eu(3)-Cryptate donor signal) and 665nm (d2 acceptor signal). The ratio of […] was calculated for each well.
# On the % scale 0 is the no-effect control and ±100 the full control effect.
row,Structure (SMILES),activity change
1,COC(=O)c1cc2c(s1)N=C(c1ccccc1)N(C)P2(=O)N1CCOCC1 (stereo not given),inactive: 7.95%
2,CCC(=O)N1C2C3N(C(=O)CC)C1C1N(C(=O)CC)C(C(N1C(=O)CC)N3C(=O)CC)N2C(=O)CC,inactive: -1.69%
3,CC(=O)N1C2C3N(C(C)=O)C1C1N(C(C)=O)C(C(N1C(C)=O)N3C(C)=O)N2C(C)=O,inactive: -2.06%
4,CC1CCN(C(=O)Oc2c(Cl)cc(Cl)c3cccnc23)CC1,active: -108%
5,CCOP(=O)(Nc1ccccc1)OCC,inactive: -4.72%
6,CCN(CC)C(=S)SC(NC=O)C(Cl)(Cl)Cl (stereo not given),inactive: 2%
7,ClCCSc1nnc(-c2cccnc2)o1,inactive: 6.29%
8,CCC(C)N(CC(C)C)C(=S)SC(NC(C)=O)C(Cl)(Cl)Cl (stereo not given),inactive: 0.187%
9,CC1(CBr)Cn2c(nc3ccccc3c2=O)S1 (stereo not given),inactive: -5.19%
10,O=[N+]([O-])c1ccc2c(c1)nnn2O,inactive: 7.94%
